What was measured:
[1] = tested on: GABAA, Flunitrazepam, Central; conditions: 10 µM
GABAB, Non-Selective = conditions: 10 µM
CYLD = CYLD (Homo sapiens, UniProt Q9NQC7); test: biochemical; conditions: read-out: Activity (% Control)
JOSD2 = JOSD2 (Homo sapiens, UniProt Q8TAC2); test: biochemical; conditions: read-out: Activity (% Control)
HMG-CoA Reductase = HMG-CoA Reductase (Homo sapiens, UniProt P04035); test: biochemical; conditions: read-out: % Inh.
Monoamine Oxidase MAO-A = Monoamine Oxidase MAO-A (Homo sapiens, UniProt P21397); test: biochemical; conditions: read-out: % Inh.
Angiotensin AT2 = Angiotensin AT2 (Homo sapiens, UniProt P50052); test: biochemical; conditions: read-out: % Inh.
Bradykinin B2 = Bradykinin B2 (Homo sapiens, UniProt P30411); test: biochemical; conditions: read-out: % Inh.
[2] = molecular target: Transporter, Norepinephrine (NET) (Homo sapiens, UniProt P23975); test: biochemical; conditions: read-out: % Inh.
ACK1(h) = ACK1(h) (Homo sapiens, UniProt Q07912); test: biochemical
BIKe(h) = BIKe(h) (Homo sapiens, UniProt Q9NSY1); test: biochemical
CaMKIbeta(h) = CaMKIbeta(h) (Homo sapiens, UniProt Q6P2M8); test: biochemical
CaMKIIbeta(h) = CaMKIIbeta(h) (Homo sapiens, UniProt Q13554); test: biochemical
CaMKK2(h) = CaMKK2(h) (Homo sapiens, UniProt Q96RR4); test: biochemical
CLIK1(h) = CLIK1(h) (Homo sapiens, UniProt Q8TDR2); test: biochemical
DCAMKL2(h) = DCAMKL2(h) (Homo sapiens, UniProt Q8N568); test: biochemical
eEF-2K(h) = eEF-2K(h) (Homo sapiens, UniProt O00418); test: biochemical
EphB1(h) = EphB1(h) (Homo sapiens, UniProt P54762); test: biochemical
EphB2(h) = EphB2(h) (Homo sapiens, UniProt P29323); test: biochemical
FGFR2(h) = FGFR2(h) (Homo sapiens, UniProt P21802); test: biochemical
FGFR3(h) = FGFR3(h) (Homo sapiens, UniProt P22607); test: biochemical
FGFR4(h) = FGFR4(h) (Homo sapiens, UniProt P22455); test: biochemical
HIPK1(h) = HIPK1(h) (Homo sapiens, UniProt Q86Z02); test: biochemical
JAK3(h) = JAK3(h) (Homo sapiens, UniProt P52333); test: biochemical
JNK1alpha1(h) = JNK1alpha1(h) (Homo sapiens, UniProt P45983); test: biochemical
LKB1(h) = LKB1(h) (Homo sapiens, UniProt Q15831); test: biochemical
MAP4K5(h) = MAP4K5(h) (Homo sapiens, UniProt Q9Y4K4); test: biochemical
MKK3(h) = MKK3(h) (Homo sapiens, UniProt P46734); test: biochemical
MLK4(h) = MLK4(h) (Homo sapiens, UniProt Q5TCX8); test: biochemical
mTOR(h) = mTOR(h) (Homo sapiens, UniProt P42345); test: biochemical
PAK1(h) = PAK1(h) (Homo sapiens, UniProt Q13153); test: biochemical
PhKgamma2(h) = PhKgamma2(h) (Homo sapiens, UniProt P15735); test: biochemical
PKCbetaII(h) = PKCbetaII(h) (Homo sapiens, UniProt P05771); test: biochemical
PKCmu(h) = PKCmu(h) (Homo sapiens, UniProt Q15139); test: biochemical
PRK1(h) = PRK1(h) (Homo sapiens, UniProt Q16512); test: biochemical
Rsk2(h) = Rsk2(h) (Homo sapiens, UniProt P51812); test: biochemical
Rsk4(h) = Rsk4(h) (Homo sapiens, UniProt Q9UK32); test: biochemical
SAPK4(h) = SAPK4(h) (Homo sapiens, UniProt O15264); test: biochemical
TAO2(h) = TAO2(h) (Homo sapiens, UniProt Q9UL54); test: biochemical
TrkB(h) = TrkB(h) (Homo sapiens, UniProt Q16620); test: biochemical
TSSK4(h) = TSSK4(h) (Homo sapiens, UniProt Q6SA08); test: biochemical
WEE1(h) = WEE1(h) (Homo sapiens, UniProt P30291); test: biochemical

Sequences of proteins named here, by UniProt entry; tags and fusion partners are left off. A change or cut given only in a name is not applied to a line headed by its entry. Residues count along the entry.
UniProt Q8TAC2: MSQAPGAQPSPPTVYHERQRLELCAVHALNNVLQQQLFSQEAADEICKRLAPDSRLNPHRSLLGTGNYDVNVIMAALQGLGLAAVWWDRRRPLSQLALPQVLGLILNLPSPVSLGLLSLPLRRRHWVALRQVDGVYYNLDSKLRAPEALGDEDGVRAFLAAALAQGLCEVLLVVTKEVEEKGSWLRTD
UniProt P50052: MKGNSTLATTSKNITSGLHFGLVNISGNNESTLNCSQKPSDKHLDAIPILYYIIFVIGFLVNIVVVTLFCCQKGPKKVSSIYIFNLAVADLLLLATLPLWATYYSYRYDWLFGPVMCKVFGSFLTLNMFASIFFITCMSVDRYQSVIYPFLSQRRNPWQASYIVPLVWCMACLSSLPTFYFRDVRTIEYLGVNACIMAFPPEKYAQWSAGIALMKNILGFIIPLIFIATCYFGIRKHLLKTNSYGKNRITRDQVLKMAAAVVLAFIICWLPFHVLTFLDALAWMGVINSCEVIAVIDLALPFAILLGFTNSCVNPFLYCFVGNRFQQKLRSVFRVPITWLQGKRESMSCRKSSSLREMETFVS
UniProt Q96RR4, whole entry: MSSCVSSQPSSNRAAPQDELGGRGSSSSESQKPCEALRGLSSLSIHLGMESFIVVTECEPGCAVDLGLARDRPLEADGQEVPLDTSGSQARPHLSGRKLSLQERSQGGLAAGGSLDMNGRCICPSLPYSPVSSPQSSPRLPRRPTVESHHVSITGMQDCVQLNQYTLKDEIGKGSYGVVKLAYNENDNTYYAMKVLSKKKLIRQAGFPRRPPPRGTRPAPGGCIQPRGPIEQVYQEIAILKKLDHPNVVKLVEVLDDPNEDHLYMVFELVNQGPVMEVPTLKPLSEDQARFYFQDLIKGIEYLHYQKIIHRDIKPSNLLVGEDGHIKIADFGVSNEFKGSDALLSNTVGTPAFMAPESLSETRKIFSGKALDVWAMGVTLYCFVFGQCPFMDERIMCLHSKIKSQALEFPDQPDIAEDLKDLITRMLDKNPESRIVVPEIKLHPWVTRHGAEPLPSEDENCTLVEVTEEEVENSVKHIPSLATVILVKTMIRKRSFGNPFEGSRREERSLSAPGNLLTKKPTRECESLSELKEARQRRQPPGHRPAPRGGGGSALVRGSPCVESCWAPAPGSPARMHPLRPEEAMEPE
UniProt P29323, 19-1055: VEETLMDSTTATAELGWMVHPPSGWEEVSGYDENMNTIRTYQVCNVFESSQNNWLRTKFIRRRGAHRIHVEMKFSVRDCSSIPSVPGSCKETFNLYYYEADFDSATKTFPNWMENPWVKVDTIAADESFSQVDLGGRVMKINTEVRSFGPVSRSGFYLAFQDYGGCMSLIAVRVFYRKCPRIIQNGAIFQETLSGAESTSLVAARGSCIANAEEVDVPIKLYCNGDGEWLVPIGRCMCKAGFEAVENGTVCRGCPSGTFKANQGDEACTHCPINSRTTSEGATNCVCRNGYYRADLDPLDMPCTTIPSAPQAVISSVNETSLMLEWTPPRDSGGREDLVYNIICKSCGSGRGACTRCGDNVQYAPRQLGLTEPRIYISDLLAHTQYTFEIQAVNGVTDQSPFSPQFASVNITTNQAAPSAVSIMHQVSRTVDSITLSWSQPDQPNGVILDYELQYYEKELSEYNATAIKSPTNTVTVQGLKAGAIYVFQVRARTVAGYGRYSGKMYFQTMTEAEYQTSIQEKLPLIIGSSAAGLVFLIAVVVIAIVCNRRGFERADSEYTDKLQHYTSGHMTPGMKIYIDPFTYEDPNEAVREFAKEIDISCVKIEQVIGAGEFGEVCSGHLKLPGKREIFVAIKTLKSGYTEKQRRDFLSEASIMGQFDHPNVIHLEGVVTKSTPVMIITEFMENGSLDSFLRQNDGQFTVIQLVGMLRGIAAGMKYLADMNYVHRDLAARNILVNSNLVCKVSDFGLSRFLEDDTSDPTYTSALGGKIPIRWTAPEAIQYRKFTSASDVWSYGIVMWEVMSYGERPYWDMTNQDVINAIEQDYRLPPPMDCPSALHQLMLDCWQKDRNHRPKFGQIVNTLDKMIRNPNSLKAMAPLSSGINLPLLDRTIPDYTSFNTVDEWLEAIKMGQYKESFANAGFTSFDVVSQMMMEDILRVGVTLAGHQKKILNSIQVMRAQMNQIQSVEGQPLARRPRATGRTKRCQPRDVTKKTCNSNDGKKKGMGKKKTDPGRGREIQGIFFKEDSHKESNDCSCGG
UniProt P52333: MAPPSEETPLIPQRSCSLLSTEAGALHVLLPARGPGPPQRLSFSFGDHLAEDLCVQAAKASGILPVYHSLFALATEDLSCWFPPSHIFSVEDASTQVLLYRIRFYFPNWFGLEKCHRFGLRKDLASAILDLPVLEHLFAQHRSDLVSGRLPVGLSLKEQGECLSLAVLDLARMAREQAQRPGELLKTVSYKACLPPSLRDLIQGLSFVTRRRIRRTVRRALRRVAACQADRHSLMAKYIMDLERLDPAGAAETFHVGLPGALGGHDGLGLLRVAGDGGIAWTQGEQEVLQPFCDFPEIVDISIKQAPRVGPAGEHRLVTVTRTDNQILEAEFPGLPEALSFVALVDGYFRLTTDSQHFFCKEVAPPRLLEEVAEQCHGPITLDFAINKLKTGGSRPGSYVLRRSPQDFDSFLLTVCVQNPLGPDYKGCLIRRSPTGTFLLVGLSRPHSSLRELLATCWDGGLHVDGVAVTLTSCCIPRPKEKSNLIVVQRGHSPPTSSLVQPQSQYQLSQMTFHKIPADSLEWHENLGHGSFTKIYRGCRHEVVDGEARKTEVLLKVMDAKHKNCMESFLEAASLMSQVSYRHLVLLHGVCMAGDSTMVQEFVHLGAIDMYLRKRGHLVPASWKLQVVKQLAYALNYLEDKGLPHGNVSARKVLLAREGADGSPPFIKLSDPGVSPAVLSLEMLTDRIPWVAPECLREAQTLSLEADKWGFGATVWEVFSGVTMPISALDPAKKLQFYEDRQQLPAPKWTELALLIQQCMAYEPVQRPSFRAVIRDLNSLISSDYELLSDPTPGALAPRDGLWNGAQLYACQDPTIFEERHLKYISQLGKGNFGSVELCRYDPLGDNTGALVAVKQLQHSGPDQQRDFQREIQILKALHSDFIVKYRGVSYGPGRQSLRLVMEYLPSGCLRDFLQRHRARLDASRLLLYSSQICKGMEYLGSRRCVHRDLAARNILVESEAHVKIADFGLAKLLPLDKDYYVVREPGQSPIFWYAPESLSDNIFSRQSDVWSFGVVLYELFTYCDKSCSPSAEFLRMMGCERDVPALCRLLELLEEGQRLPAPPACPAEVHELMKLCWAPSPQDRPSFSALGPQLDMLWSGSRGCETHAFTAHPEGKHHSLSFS
UniProt Q15831: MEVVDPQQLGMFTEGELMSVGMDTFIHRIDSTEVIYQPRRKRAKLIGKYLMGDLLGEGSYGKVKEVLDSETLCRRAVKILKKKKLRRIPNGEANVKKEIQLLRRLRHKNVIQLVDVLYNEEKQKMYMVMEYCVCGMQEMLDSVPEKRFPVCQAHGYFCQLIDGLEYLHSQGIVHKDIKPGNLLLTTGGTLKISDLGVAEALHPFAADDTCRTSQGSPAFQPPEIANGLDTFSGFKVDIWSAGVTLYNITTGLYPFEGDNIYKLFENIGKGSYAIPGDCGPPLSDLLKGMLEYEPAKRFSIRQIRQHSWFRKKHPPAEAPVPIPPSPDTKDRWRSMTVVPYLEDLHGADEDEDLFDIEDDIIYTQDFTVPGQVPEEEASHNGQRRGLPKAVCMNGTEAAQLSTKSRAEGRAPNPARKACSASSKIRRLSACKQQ
UniProt Q9Y4K4: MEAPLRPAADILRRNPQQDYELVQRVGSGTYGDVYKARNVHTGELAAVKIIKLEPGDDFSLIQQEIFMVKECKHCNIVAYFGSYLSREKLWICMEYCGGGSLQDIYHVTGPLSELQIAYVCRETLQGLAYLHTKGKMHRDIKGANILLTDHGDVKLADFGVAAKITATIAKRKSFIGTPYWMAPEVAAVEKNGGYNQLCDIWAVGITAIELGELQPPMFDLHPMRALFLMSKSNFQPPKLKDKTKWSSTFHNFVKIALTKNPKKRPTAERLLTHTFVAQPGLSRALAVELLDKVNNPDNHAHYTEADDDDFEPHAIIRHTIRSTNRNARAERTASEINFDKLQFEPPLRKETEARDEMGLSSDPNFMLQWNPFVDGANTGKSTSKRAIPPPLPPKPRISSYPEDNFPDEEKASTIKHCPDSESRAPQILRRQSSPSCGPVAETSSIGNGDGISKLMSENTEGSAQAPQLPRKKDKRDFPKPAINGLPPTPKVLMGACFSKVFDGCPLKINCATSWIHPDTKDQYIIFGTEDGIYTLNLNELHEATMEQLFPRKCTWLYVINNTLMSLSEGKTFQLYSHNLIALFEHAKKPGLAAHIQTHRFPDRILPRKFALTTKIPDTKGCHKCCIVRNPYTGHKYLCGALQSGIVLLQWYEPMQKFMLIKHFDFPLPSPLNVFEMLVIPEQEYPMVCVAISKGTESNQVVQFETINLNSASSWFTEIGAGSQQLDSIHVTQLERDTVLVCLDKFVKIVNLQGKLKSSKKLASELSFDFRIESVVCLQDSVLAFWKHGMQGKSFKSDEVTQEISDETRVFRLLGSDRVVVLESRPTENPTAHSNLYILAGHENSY
UniProt P51812, whole entry: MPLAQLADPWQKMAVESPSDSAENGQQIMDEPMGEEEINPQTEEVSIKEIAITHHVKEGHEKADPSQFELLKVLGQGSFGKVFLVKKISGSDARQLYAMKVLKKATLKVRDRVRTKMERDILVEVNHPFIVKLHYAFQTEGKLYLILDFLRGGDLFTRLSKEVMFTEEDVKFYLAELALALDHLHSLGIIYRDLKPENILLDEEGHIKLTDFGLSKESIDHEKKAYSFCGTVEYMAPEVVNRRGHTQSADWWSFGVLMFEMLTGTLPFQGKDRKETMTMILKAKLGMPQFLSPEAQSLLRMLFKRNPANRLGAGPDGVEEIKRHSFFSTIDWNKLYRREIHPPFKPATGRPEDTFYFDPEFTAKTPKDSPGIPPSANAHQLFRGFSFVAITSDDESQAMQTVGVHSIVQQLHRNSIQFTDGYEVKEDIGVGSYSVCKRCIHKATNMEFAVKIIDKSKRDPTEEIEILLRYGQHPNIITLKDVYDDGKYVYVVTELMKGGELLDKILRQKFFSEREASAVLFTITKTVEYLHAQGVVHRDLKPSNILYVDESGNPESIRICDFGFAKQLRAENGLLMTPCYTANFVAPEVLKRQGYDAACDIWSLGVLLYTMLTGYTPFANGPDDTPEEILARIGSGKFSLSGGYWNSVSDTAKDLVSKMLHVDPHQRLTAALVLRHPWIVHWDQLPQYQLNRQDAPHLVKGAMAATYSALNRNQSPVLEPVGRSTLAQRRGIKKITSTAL
UniProt Q9UK32, whole entry: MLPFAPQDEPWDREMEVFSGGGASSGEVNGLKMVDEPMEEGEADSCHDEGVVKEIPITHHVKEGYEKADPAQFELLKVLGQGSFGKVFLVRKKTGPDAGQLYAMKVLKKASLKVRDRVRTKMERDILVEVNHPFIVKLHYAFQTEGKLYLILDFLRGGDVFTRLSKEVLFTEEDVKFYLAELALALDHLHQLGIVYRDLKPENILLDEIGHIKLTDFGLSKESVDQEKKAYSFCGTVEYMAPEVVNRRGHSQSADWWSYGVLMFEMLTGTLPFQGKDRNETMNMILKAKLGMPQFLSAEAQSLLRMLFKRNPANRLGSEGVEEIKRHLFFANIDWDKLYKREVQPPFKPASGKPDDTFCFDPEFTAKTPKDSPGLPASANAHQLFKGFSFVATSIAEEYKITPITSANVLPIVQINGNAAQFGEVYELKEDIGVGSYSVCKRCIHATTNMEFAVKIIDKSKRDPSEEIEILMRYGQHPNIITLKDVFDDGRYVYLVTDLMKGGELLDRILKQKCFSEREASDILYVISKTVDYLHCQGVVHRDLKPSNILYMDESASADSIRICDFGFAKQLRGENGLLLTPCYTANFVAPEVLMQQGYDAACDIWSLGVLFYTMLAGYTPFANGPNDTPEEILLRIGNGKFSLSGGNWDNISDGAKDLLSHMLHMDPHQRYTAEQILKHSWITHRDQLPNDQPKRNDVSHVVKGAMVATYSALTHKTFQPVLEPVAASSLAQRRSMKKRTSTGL
UniProt O15264: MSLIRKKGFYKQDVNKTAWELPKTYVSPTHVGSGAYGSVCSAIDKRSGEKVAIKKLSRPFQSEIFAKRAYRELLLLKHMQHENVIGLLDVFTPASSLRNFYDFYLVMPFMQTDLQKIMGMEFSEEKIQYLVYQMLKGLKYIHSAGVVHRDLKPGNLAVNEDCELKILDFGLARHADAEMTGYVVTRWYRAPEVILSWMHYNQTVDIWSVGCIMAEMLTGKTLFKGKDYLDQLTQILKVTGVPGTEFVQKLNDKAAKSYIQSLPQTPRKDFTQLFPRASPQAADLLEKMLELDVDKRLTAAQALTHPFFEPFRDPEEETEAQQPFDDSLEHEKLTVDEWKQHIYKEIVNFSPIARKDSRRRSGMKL

SMILES: CC(C)C[C@@H](NC(=O)C1(C(F)(F)F)CCCCC1)C(=O)Nc1nnc(Cc2ccc(C#N)cc2)s1 [Compound 21, N-[(1R)-1-[[5-[(4-Cyanophenyl)methyl]-1,3,4-thiadiazol-2-yl]carbamoyl]-3-methyl-butyl]-1-(trifluoromethyl)cyclohexanecarboxamide]
- % Inh. [1]: -7%
- % Inh. (GABAB, Non-Selective): -2%
- remaining activity at 1 µM (CYLD): 105%
- remaining activity at 10 µM (CYLD): 102%
- remaining activity at 1 µM (JOSD2): 113%
- remaining activity at 10 µM (JOSD2): 113%
- inhibition at 10 µM (HMG-CoA Reductase): 16%
- inhibition at 10 µM (Monoamine Oxidase MAO-A): 3%
- inhibition at 10 µM (Angiotensin AT2): -3%
- inhibition at 10 µM (Bradykinin B2): -7%
- inhibition at 10 µM [2]: 10%
- inhibition at 10 µM (ACK1(h)): -2.92%
- inhibition at 10 µM (BIKe(h)): 7.79%
- inhibition at 10 µM (CaMKIbeta(h)): 1.26%
- inhibition at 10 µM (CaMKIIbeta(h)): 7.19%
- inhibition at 10 µM (CaMKK2(h)): 3.81%
- inhibition at 10 µM (CLIK1(h)): 6.36%
- inhibition at 10 µM (DCAMKL2(h)): -0.9%
- inhibition at 10 µM (eEF-2K(h)): -5.77%
- inhibition at 10 µM (EphB1(h)): -31.5%
- inhibition at 10 µM (EphB2(h)): -5.06%
- inhibition at 10 µM (FGFR2(h)): -17.4%
- inhibition at 10 µM (FGFR3(h)): 19.4%
- inhibition at 10 µM (FGFR4(h)): -10.4%
- inhibition at 10 µM (HIPK1(h)): 8.51%
- inhibition at 10 µM (JAK3(h)): 4.23%
- inhibition at 10 µM (JNK1alpha1(h)): 9.47%
- inhibition at 10 µM (LKB1(h)): 0.83%
- inhibition at 10 µM (MAP4K5(h)): -2.39%
- inhibition at 10 µM (MKK3(h)): 4.95%
- inhibition at 10 µM (MLK4(h)): 5.22%
- inhibition at 10 µM (mTOR(h)): 0.96%
- inhibition at 10 µM (PAK1(h)): -1.95%
- inhibition at 10 µM (PhKgamma2(h)): 5.66%
- inhibition at 10 µM (PKCbetaII(h)): 0.32%
- inhibition at 10 µM (PKCmu(h)): 0.41%
- inhibition at 10 µM (PRK1(h)): 2.46%
- inhibition at 10 µM (Rsk2(h)): -2.95%
- inhibition at 10 µM (Rsk4(h)): 9.03%
- inhibition at 10 µM (SAPK4(h)): -2.62%
- inhibition at 10 µM (TAO2(h)): -3.58%
- inhibition at 10 µM (TrkB(h)): 10.2%
- inhibition at 10 µM (TSSK4(h)): 27.8%
- inhibition at 10 µM (WEE1(h)): -6.82%

SMILES: CC(C)C[C@H](NC(=O)C1(C(F)(F)F)CCCCC1)C(=O)Nc1nnc(Cc2ccc(C#N)cc2)s1 [Compound 22, CC(C)C[C@H](NC(=O)C1(CCCCC1)C(F)(F)F)C(=O)Nc2nnc(Cc3ccc(cc3)C#N)s2]
- % Inh. [1]: -10%
- % Inh. (GABAB, Non-Selective): -1%
- remaining activity at 1 µM (CYLD): 96%
- remaining activity at 10 µM (CYLD): 100%
- remaining activity at 1 µM (JOSD2): 98%
- remaining activity at 10 µM (JOSD2): 110%
- inhibition at 10 µM (HMG-CoA Reductase): 1%
- inhibition at 10 µM (Monoamine Oxidase MAO-A): 5%
- inhibition at 10 µM (Angiotensin AT2): -2%
- inhibition at 10 µM (Bradykinin B2): -7%
- inhibition at 10 µM [2]: 37%
- inhibition at 10 µM (ACK1(h)): -3.45%
- inhibition at 10 µM (BIKe(h)): -13.9%
- inhibition at 10 µM (CaMKIbeta(h)): -1.47%
- inhibition at 10 µM (CaMKIIbeta(h)): 1.16%
- inhibition at 10 µM (CaMKK2(h)): 5.63%
- inhibition at 10 µM (CLIK1(h)): -3.36%
- inhibition at 10 µM (DCAMKL2(h)): -15.1%
- inhibition at 10 µM (eEF-2K(h)): 1.23%
- inhibition at 10 µM (EphB1(h)): 4.2%
- inhibition at 10 µM (EphB2(h)): -7.93%
- inhibition at 10 µM (FGFR2(h)): -9.39%
- inhibition at 10 µM (FGFR3(h)): 21.2%
- inhibition at 10 µM (FGFR4(h)): -10.5%
- inhibition at 10 µM (HIPK1(h)): 11.9%
- inhibition at 10 µM (JAK3(h)): 3.97%
- inhibition at 10 µM (JNK1alpha1(h)): -0.15%
- inhibition at 10 µM (LKB1(h)): 3.08%
- inhibition at 10 µM (MAP4K5(h)): -3.65%
- inhibition at 10 µM (MKK3(h)): 1.89%
- inhibition at 10 µM (MLK4(h)): -1.94%
- inhibition at 10 µM (mTOR(h)): -5.19%
- inhibition at 10 µM (PAK1(h)): 11.1%
- inhibition at 10 µM (PhKgamma2(h)): 9.2%
- inhibition at 10 µM (PKCbetaII(h)): 0.91%
- inhibition at 10 µM (PKCmu(h)): -7.74%
- inhibition at 10 µM (PRK1(h)): 5.48%
- inhibition at 10 µM (Rsk2(h)): 6.09%
- inhibition at 10 µM (Rsk4(h)): 4.56%
- inhibition at 10 µM (SAPK4(h)): 0.28%
- inhibition at 10 µM (TAO2(h)): 2.21%
- inhibition at 10 µM (TrkB(h)): 7.83%
- inhibition at 10 µM (TSSK4(h)): 9.24%
- inhibition at 10 µM (WEE1(h)): -10.9%
